Consider four compounds from patent US7928139B2 (Amgen Inc., priority 2006, dated 2011).

Amino acid sequences for entries named in this document (tags omitted).
UniProt Q9GZT9, whole entry: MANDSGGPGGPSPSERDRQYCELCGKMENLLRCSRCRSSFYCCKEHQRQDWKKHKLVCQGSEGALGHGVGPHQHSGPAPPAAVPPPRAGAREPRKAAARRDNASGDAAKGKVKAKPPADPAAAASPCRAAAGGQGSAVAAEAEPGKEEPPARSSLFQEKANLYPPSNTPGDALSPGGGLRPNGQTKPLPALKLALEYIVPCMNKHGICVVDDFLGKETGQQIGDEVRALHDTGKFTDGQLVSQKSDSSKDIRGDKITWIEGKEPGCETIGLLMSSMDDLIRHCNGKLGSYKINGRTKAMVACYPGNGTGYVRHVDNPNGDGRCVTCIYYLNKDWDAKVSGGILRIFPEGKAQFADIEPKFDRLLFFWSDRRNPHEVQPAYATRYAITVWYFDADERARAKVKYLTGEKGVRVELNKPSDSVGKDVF

The target in this experiment is HIF PHD2 (Homo sapiens, UniProt Q9GZT9). The experiment in a line: PHD2 inhibition assay (TR-FRET, VCB-Eu detection of hydroxylated P564-HIF1α peptide). The following applies: read-out: PHD2 IC50, 2 nM PHD2, 100 nM P564-HIF1α peptide, 0.25 μM 2-oxoglutarate, 100 μM FeCl2, 2 mM ascorbic acid. (In general: In TR-FRET formats the signal depends on donor and acceptor labels being close together.)
For orientation: IC50 means the concentration needed to halve the response being measured. `CC1(C#N)C(=O)C(C(=O)NCC(=O)O)=C(O)c2cc(F)ccc21` (single isomer, unassigned): the concentration for half-maximal inhibition (IC50) was below 100 nM. The same measure for `CC1(C#N)C(=O)C(C(=O)CCC(=O)O)=C(O)c2cc(Cl)ccc21` (single isomer, unassigned): 500 to 1000 nM; for `CC1(C#N)C(=O)C(C(=O)NCC(=O)O)=C(O)c2cc(F)c(F)cc21` (single isomer, unassigned): below 100 nM; for `CC1(C#N)C(=O)C(C(=O)NCC(=O)O)=C(O)c2ccc(F)cc21` (single isomer, unassigned): below 100 nM.
